## Antibody variant affinities, Ab-14 light chain, assay 1

Data: MIT Lincoln Laboratory AlphaSeq set, Engelhart et al. 2022, doi:10.1038/s41597-022-01779-4, as distributed in FLAb.

Antigen: PDVDLGDISGINAS, a 14-residue peptide of the SARS-CoV-2 spike HR2 region.

Parent: Ab-14, a human scFv built as VH, a 15-residue (Gly4Ser)3 linker, VL. Only the CDRs of the light chain vary.
VH: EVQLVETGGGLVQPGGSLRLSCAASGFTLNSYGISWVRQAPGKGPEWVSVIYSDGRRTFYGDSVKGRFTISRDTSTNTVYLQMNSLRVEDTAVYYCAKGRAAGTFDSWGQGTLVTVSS
VL: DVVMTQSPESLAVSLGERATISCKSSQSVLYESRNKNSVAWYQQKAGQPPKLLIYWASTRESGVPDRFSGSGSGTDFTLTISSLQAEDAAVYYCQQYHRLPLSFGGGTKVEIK

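The parent was found by panning a naive human phage display library on the peptide. AAYL50 was designed without a model: most single CDR substitutions and a random sample of double and triple ones. The scFvs were displayed on barcoded MATa yeast, the peptide on MATalpha yeast. The frequency of each diploid, read from paired DNA barcodes, reflects how well the two displayed proteins bind. Scores were corrected for input abundance and mapped to Kd with protein pairs of known affinity run in the same pool. The assay was run in three technical replicates.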

Variants are written as CDR1, CDR2 and CDR3 of the light chain (limits as in the source). Parent: KSSQSVLYESRNKNSVA, WASTRES, QQYHRLPLS. Affinities are written as log10 Kd with Kd in nM; a lower number is a better binder. A mean of the replicates is given; it leaves out those without a signal. A pair that was not seen in any replicate is written "no signal"; this usually means weak binding, but a binder can also be missed. Three control strains display no target. For library AAYL50, 18% of the pairings with them gave a signal, with a median of 4.19 and one signal in twenty below 2.99, so weak values seen in few replicates may be background.

| CDR-L1 | CDR-L2 | CDR-L3 | mean log10 Kd (nM) | detected |
|---|---|---|---|---|
| KSSQSVLYESRAKNSVR | WASTRES | QQYHSLPLS | no signal | 0/3 |
| RSSQSVLYESRNKNSVA | WASTRES | QQPHRTPLS | 1.39 | 3/3 |
| KSSQSVLYESRNKNSCA | WASTREH | QQYHRLPLR | 3.51 | 2/3 |
| KSSQSVLYESRNKNSNA | WASTRES | QMYHRLSLS | 3.94 | 1/3 |
| KSSQSVLAESRNKNYVA | WASTREF | QQYHRLPLS | 2.99 | 3/3 |
| KSSQSVLYESRNKNSVA | WAGTRES | QQYHRLPIR | no signal | 0/3 |
| KSSQSVLYESRNKNSVP | WASTRES | QQYHRLVNS | no signal | 0/3 |
| KSSQSVLYESRNKNLRA | WASTRES | QQYHRLPLS | no signal | 0/3 |
| KSSQSVLYESRNKNCVA | WASHRES | QVYHRLPLS | 5.19 | 2/3 |
| KSSQSVLSESRNKNSVA | WASTRES | QQYMRLPLS | 3.82 | 2/3 |
| KSSQSVLYESRNKNSVA | WAQTRAS | QQGHRLPLS | 1.35 | 3/3 |
| KSSQWVLYESRNKNSVA | WASTRES | QQGHRLPLS | no signal | 0/3 |
| KSSQSVLYESRNVQSVA | TASTRES | QQYHRLPLS | no signal | 0/3 |
| KSSQSVLYEVRNKNSVA | SASTRNS | QQYHRLPLS | 0.86 | 3/3 |
| KSEQSVLYMSRNKNSVA | WASTRES | QQYHRLPLS | 1.92 | 3/3 |
| KSSQSVLYESHNKNSEA | WASTRES | QQYDRLPLS | 4.33 | 1/3 |
| KSSQSVLYESRNVLSVA | WASTRES | QQYHRLPYS | 4.28 | 3/3 |
| KSSQSVLYESRNKNQVA | WASTRES | QEYHRLPLI | 2.61 | 3/3 |
| KSIQSVLYESRNKNSVA | WASTRES | WQYHRLPLL | no signal | 0/3 |
| KSSKSVLYESRNKNSYA | KASTRES | QQYHRLPLS | 1.95 | 3/3 |
| KSSQSVLWESYNKNSGA | WASTRES | QQYHRLPLS | no signal | 0/3 |
| KSSQSVLYECRNKNSVA | WSSTRES | QQYHRGPLS | 5.74 | 1/3 |
| KSSQSVLYESRNKNSVA | WAVTRES | QQYHRAPLS | no signal | 0/3 |
| HSSQSVLYESRNKNSVY | WASTLES | QQYHRLPLS | 3.85 | 1/3 |
| KLSYSVLYESRNKNSVA | WASTRES | QQYHRMPLS | 0.55 | 3/3 |
| KSSQSPLYESKNKNSVA | WISTRES | QQYHRLPLS | 3.29 | 1/3 |

Second part, the sequence after the result:

| mean log10 Kd (nM) | detected | CDR-L1 | CDR-L2 | CDR-L3 |
|---|---|---|---|---|
| no signal | 0/3 | KSSQSVLYNSPNKNSVA | WASTRES | WQYHRLPLS |
| 2.43 | 3/3 | KSSQSVLYENRNKNSVA | WASTREG | LQYHRLPLS |
| 4.06 | 3/3 | KSSQSVLYESLNKNSVA | WASGREN | QQYHRLPLS |
| 4.89 | 2/3 | KSSQSVLYESRNKNSFA | WAFLRES | QQYHRLPLS |
| 2.96 | 2/3 | KSSYSVLYASRNKNSVA | WAITRES | QQYHRLPLS |
| 3.08 | 2/3 | KSSQSVLHESRNKNSVA | WASTQES | QQYTRLPLS |
| no signal | 0/3 | KSSQSVLYESRNKNSVA | WASVRRS | QQYHRLPLS |
| 4.37 | 2/3 | KSGQSVLYESRNKNSVA | WASTRES | QQYHKQPLS |
| 2.04 | 3/3 | ASSQSVLYESRNKNSVA | WASTRLS | RQYHRLPLS |
| no signal | 0/3 | KSSQRVLYESRNKNVVA | WASTRES | QAYHRLPLS |
| 2.17 | 3/3 | KSSQSVLYESRNNNSVA | WASIRES | QQYDRLPLS |
| 4.25 | 1/3 | KSSQSVLHDSRNKNSVA | AASTRES | QQYHRLPLS |
| no signal | 0/3 | KSSQSVLYESRNWNIVA | WASTYES | QQYHRLPLS |
| 3.46 | 3/3 | KPSQSVLYQSRNKFSVA | WASTRES | QQYHRLPLS |
| 2.90 | 3/3 | KSSIKVLYESRNKNAVA | WASTRES | QQYHRLPLS |
| no signal | 0/3 | KSSQSVLYESRNKNSVI | WASTRES | QQYHRLPDS |
| no signal | 0/3 | KSSQSVLYESRNKNSVA | WASTRES | QQYHFLGLS |
| 2.80 | 1/3 | KSSQSVLYESRNKLSVA | WKSTRES | QQYHRLPLE |
| no signal | 0/3 | KSSQSELYESRNKNSVA | WASTRES | QQEHRLPGS |
| 3.49 | 3/3 | KSEQSNLYESRNKNSVA | WASTRES | NQYHRLPLS |
| 1.46 | 3/3 | KSSQSVLYESRNKNSVA | WASTRES | QRYHRLPDS |
| no signal | 0/3 | YSSQSVLYESRNKNSVA | WASVHES | QQYHRLPLS |
| 0.67 | 3/3 | KSSQSVLYEGRNWNSVA | FASTRES | QQYHRLPLS |
| 1.42 | 3/3 | KSSQSVLYESRNKHSVA | WASTKES | QQYHRLPLS |
| no signal | 0/3 | VSSQSVLYYSRNKNSVA | WASTRES | QQYHREPLS |
| 3.63 | 1/3 | KSSQSVRYESRNKNSVY | WASTRES | IQYHRLPLS |

The 4 strongest on average among those seen in every replicate, once more:

{"CDR-L1": "KLSYSVLYESRNKNSVA", "CDR-L2": "WASTRES", "CDR-L3": "QQYHRMPLS", "mean log10 Kd (nM)": "0.55", "detected": "3/3"}
{"CDR-L1": "KSSQSVLYEGRNWNSVA", "CDR-L2": "FASTRES", "CDR-L3": "QQYHRLPLS", "mean log10 Kd (nM)": "0.67", "detected": "3/3"}
{"CDR-L1": "KSSQSVLYEVRNKNSVA", "CDR-L2": "SASTRNS", "CDR-L3": "QQYHRLPLS", "mean log10 Kd (nM)": "0.86", "detected": "3/3"}
{"CDR-L1": "KSSQSVLYESRNKNSVA", "CDR-L2": "WAQTRAS", "CDR-L3": "QQGHRLPLS", "mean log10 Kd (nM)": "1.35", "detected": "3/3"}